19 molecules from PubChem BioAssay (Tox21) can be followed below.

The chains behind the UniProt entries cited, without tags or fusion partners.
UniProt P07550, whole entry: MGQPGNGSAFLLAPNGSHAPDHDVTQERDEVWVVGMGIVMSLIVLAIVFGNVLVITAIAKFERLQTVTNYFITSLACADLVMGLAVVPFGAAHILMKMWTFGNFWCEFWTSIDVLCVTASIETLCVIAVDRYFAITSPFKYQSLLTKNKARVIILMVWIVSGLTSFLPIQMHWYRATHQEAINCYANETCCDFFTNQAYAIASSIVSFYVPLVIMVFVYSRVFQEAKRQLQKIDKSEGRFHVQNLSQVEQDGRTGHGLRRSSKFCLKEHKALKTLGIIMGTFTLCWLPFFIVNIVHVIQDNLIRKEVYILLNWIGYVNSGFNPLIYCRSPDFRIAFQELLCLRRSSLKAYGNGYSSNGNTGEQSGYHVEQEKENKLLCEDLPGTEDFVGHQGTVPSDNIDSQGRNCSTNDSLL

Where “and” joins values, the source holds several entries; their conditions need not be identical. Equal entries are not always repeated. The list shows a part of the results, in another mix than the full data. Records with an inconclusive call do not appear. Calls of active or inactive are those of the source. The call rests on the fitted dose curve.
On the % scale 0 is the no-effect control and ±100 the full control effect.

The target of one assay is Beta-2 adrenergic receptor (Homo sapiens) (UniProt P07550). As to the kind of experiment: Adrenergic beta2 receptor (ADRB2) small molecule antagonists, cell-based qHTS assay (AID 1963592). Further: nearly all actives have a fitted effect of over 50% in size. The settings on record: CHO-ADRB2 cells, isoproterenol-stimulated cAMP HTRF ratio, 0.5 h; at 42.5 µM (top of the series). The text has this:
U.S. Tox21 Program National Center for Advancing Translational Sciences [NCATS] Division of Preclinical Innovation [DPI] U.S. Environmental Protection Agency [EPA] National Institutes of Environmental Health Sciences [NIEHS] National Toxicology Program [NTP] U.S. Food and Drug Administration [FDA] Tox21 Assay Overview: Beta adrenergic receptors (Beta-ARs) belong to the G-protein coupled receptor (GPCR) superfamily, includes three subtypes - beta1, beta2, and beta3. Beta1-AR is the predominant receptor subtype expressed in the heart, and beta2-AR is expressed in the kidney, lung, blood vessel and in the heart, and beta3 is found in the adipocytes. Beta1 and 2 ARs couple to Gs protein and elevate cyclic adenosine mono phosphate (cAMP), which activates protein kinase A and leads to the downstream signaling responsible for the physiological actions. Beta-AR agonists or antagonists are the most prescribed therapeutic agents for heart failure and asthma, and these were one of the first target receptors for the rational drug design. Tox21 10K compound library was screened using the cAMP-Gs dynamic assay (Cisbio Bioassays, Shelton, CT) to identify agonists/antagonists of the Gs-coupled human adrenergic, beta2 receptor (ADRB2) in the CHO-ADRB2 cell line (Codex BioSolutions, Inc. Gaithersburg, MD), which stably over-expresses ADRB2. The principle of cAMP-Gs dynamic assay is based on HTRF technology, which facilitates the fluorescence resonance energy transfer (FRET) between donor Europium cryptate and acceptor d2-labeled cAMP. The cAMP generated within cells competes with the red acceptor, d2-labled cAMP, for binding to the monoclonal anti-cAMP-cryptate (Europium donor). An increase in intracellular cAMP leads to the disruption of FRET signal, and the signal is inversely proportional to the cAMP concentration. Propranolol HCl (Sigma-Aldrich, St. Louis, MO) was used as a positive control in the screening.
Tox21 Assay Protocol Summary: CHO-ADRB2 cells were dispensed at 1,000/well in 4uL assay medium into white/solid 1536-well plates (Greiner Bio-One North America Inc., Monroe, NC) using a Multidrop Combi dispenser (ThermoFisher Scientific, Waltham, MA). The assay plates were incubated at 37C and 5% CO2 for an overnight (18-20hr). Then positive control and test compounds dissolved in DMSO were transferred to the assay plates at 23nL using a Pintool station (Wako, San Diego, CA). Following the compound and positive control transfer, 1uL agonist-stimulation mix containing 1nM Isoproterenol HCl, 100uM IBMX and 25uM Ro-20-1724 was added to each well of the assay plates using BioRAPTR Flying Reagent Dispenser (FRD, Beckman Coulter, Brea, CA). The assay plates were incubated at room temperature for 0.5hr. Then 2.5ul each d2-labled cAMP and anti-cAMP-cryptate solutions were added separately to each well of the assay plates using an FRD and the assay plates were incubated at room temperature for 1hr. The fluorescence signal was measured at two different wavelengths (665nm and 615nm) using an Envision plate reader (Perkin Elmer, Shelton, CT). Data were expressed as the ratio of 665 nm/615 nm.
With `C/C1=C2N=C(/C=C3N=C(/C(C)=C4\[N-][C@@](C)([C@@H]5N=C1[C@](C)(CCC(=O)NC[C@@H](C)OP(=O)([O-])O[C@H]1[C@@H](O)[C@@H](n6cnc7cc(C)c(C)cc76)O[C@@H]1CO)[C@H]5CC(N)=O)[C@@](C)(CC(N)=O)[C@@H]4CCC(N)=O)[C@@](C)(CC(N)=O)[C@@H]\3CCC(N)=O)C(C)(C)[C@@H]/2CCC(N)=O.[C-]#N.[Co+3]`, the activity change, negative = inhibition is inactive: 4.82%.
Turning to `OCCSCCO`, the activity change, negative = inhibition is inactive: 5.82%.
On the same count and under the same terms, the value for `CCOP(=O)(CC)Oc1ccc([N+](=O)[O-])cc1` (stereo not given) was inactive: 3.13%.

The same assay, now with this note: CHO-ADRB2 cells, isoproterenol-stimulated cAMP HTRF ratio, 0.5 h; at 92.4 µM (top of the series).
With `N=C(N)N[N+](=O)[O-]`, the activity change, negative = inhibition was inactive: -4.7%.
With `OCCSCCO`, the activity change, negative = inhibition is inactive: -3.81%.
On the same count and under the same terms, to `COc1ccc([N+](=O)[O-])cc1[N+](=O)[O-]` belongs inactive: 0%.
Same read-out and setting: to `CC(C)OP(C)(=O)OC(C)C` belongs inactive: -4.77% and inactive: 0.556%; to `COP(C)(=O)OC`, inactive: 0.0763% and inactive: -7.34%.
Same read-out and setting: the value for `Cc1ccc([N+](=O)[O-])c([N+](=O)[O-])c1` was inactive: -0.517% and inactive: 4.82%; that for `CP(=O)(O)OCCC[Si](O)(O)O` was inactive: -1.33%.
On to `O=[N+]([O-])OCC(CO[N+](=O)[O-])(CO[N+](=O)[O-])CO[N+](=O)[O-]`, for which the activity change, negative = inhibition is inactive: -1.48%.
The same measure, in the same setting: to `[NH4+].[O-][Cl+3]([O-])([O-])[O-]` belongs inactive: 7.22% and inactive: 0.242%.
The same measure, in the same setting: the value for `CCOP(=O)(CC)OCC` was inactive: -0.121%.
Same read-out and setting: to `CN(C)CCCl` belongs inactive: -4.87%.
As for `O=[N+]([O-])[O-].[NH4+]`, the activity change, negative = inhibition is inactive: -4.3% and inactive: -12%.
The same measure, in the same setting: the value for `N#CBr` was inactive: -2.25%; that for `Cc1ccc([N+](=O)[O-])cc1[N+](=O)[O-]` was inactive: 11.5%.
Still for that read-out and setting: to `Cc1c([N+](=O)[O-])cccc1[N+](=O)[O-]` belongs inactive: 6.82% and inactive: 1.14%; to `CCN(CC)CCCl`, inactive: 2.3%.
Still for that read-out and setting: to `CC(C)N(CCO)C(C)C` belongs inactive: 0.207%.
